Assay results taken from patent EP2505189B1, “Stabilizing alkylglycoside compositions and method thereof” (Aegis Therapeutics, LLC, priority 2006, dated 2007).

Conditions: formulation stored for many months at about 4°C; intra-nasal metered spray

C[C@H](N)C(=O)N[C@@H](CO)C(=O)N[C@H](C(=O)N[C@H](C(=O)N[C@H](C(=O)N[C@@H](CC(N)=O)C(=O)N[C@@H](Cc1ccc(O)cc1)C(=O)N[C@H](C(=O)O)[C@@H](C)O)[C@@H](C)O)[C@@H](C)O)[C@@H](C)O [Peptide T]
diminished ability to enter the plasma: 10 fold
